Test results as given in US20250367305A1, “ALBUMIN NANOCOMPOSITE COMPRISING PHYTOCHEMICAL AND COMPOSITION FOR IMPROVING MUSCLE DISEASE CONTAINING SAME” (SEOUL NATIONAL UNIVERSITY R&DB FOUNDATION, priority 2023, published 2025).
Like-named read-outs stand apart in the source and are kept apart here.

Legend:
[1] = system: M1-type macrophages (GLUT overexpressed); experiment: Uptake of FNR648-labeled albumin in RAW cells polarized to M1; type: cell-based
Text: The glycated albumin prepared in Preparation Example 1-1 was synthesized using glucose as a target ligand to selectively target GLUT (glucose transporter), which is overexpressed in M1-type macrophages.
To verify whether the albumin glycated with glucose can selectively target M1-type macrophages, RAW cells were polarized into M0 and M1 states, followed by treatment with FNR648-labeled glycated albumin (Alb-DBCO-Glc) and non-glycated albumin (Alb-DBCO).

[2] = Retention at the injection site after intramuscular injection (nuclear imaging); details: 0, 3, and 24 hours after injection
[3] = in vivo

## glycated albumin: albumin with DBCO groups clicked with 6-azido-glucose, Preparation Example 1-1
[1]
  fluorescence expression in M1 cells: significantly increased
[1]; FNR648 fluorescence, FIG. 6
  uptake in M1 macrophages compared to non-glycated albumin: more than fourfold higher uptake

## Albumin(11): albumin platform introduced with 11 ADIBO functional groups
[2]
  retention at the injection site: very high retention

## Glc(6)-Albumin(11): albumin with 11 ADIBO groups, 6 of which were substituted with glucose
[3]
  retention at the injection site: very high retention
